Source: PubChem BioAssay AID487 (Columbia University Molecular Screening Center, 2006)
The list shows a part of the results, in another mix than the full data. Active and inactive are the calls of the source.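 The calls were made as follows: active = visually confirmed hit in the image check and inhibition above 20%; inconclusive = visually confirmed hit but inhibition not above 20%; inactive = no visual hit in the image check.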

Assay: inhibitors of E-selectin induction by TNFa, primary screen, imaging, HUVEC, immunofluorescence, MLSMR starter and 10KST1 sets (AID 487);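 also: signal is fraction of cell area covered by stained E-selectin grains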
Settings: HUVEC TNFalpha-induced E-selectin immunofluorescence imaging; at 2 µM; hits give high values

Row | SMILES | inhibition
1 | CCN(CC)CC(O)COC(=O)C(O)(c1ccccc1)C1CCCCC1 (stereo unspecified) | inactive: 9.1%
2 | CP(=O)(Nc1ccccn1)Oc1ccccc1 (stereo unspecified) | inactive: 49.1%
3 | CP(=O)(Nc1ccc2c(c1)OCCO2)Oc1ccccc1 (stereo unspecified) | inactive: 2.9%
4 | CN(C)CCOC(=O)C(O)(c1ccccc1)C1CCCCC1 (stereo unspecified) | inactive: -45%
5 | Cc1ccc(C)c(NP(C)(=O)Oc2ccccc2)c1 (stereo unspecified) | inactive: -32.8%
6 | CP(=S)(Nn1cnnc1)Oc1ccccc1 (stereo unspecified) | inactive: 56.4%
